# This is a selection; strong and weak results do not stand in their true shares. Active and inactive are the calls of the source. Calls come from the whole dose curve; as a rule, active = well fitted inhibition curve with a large enough effect in the polarisation, with a control signal flat (not every such curve was filed as active); inconclusive = small, poorly fitted or top-dose-only effect, or effect the other way, or a change in a side signal; inactive = no such curve, though single readings can be large or run the other way; the % refers to the polarisation.
# By UniProt entry, the sequences of proteins in these tests, tags left out.
# UniProt Q03164, whole entry: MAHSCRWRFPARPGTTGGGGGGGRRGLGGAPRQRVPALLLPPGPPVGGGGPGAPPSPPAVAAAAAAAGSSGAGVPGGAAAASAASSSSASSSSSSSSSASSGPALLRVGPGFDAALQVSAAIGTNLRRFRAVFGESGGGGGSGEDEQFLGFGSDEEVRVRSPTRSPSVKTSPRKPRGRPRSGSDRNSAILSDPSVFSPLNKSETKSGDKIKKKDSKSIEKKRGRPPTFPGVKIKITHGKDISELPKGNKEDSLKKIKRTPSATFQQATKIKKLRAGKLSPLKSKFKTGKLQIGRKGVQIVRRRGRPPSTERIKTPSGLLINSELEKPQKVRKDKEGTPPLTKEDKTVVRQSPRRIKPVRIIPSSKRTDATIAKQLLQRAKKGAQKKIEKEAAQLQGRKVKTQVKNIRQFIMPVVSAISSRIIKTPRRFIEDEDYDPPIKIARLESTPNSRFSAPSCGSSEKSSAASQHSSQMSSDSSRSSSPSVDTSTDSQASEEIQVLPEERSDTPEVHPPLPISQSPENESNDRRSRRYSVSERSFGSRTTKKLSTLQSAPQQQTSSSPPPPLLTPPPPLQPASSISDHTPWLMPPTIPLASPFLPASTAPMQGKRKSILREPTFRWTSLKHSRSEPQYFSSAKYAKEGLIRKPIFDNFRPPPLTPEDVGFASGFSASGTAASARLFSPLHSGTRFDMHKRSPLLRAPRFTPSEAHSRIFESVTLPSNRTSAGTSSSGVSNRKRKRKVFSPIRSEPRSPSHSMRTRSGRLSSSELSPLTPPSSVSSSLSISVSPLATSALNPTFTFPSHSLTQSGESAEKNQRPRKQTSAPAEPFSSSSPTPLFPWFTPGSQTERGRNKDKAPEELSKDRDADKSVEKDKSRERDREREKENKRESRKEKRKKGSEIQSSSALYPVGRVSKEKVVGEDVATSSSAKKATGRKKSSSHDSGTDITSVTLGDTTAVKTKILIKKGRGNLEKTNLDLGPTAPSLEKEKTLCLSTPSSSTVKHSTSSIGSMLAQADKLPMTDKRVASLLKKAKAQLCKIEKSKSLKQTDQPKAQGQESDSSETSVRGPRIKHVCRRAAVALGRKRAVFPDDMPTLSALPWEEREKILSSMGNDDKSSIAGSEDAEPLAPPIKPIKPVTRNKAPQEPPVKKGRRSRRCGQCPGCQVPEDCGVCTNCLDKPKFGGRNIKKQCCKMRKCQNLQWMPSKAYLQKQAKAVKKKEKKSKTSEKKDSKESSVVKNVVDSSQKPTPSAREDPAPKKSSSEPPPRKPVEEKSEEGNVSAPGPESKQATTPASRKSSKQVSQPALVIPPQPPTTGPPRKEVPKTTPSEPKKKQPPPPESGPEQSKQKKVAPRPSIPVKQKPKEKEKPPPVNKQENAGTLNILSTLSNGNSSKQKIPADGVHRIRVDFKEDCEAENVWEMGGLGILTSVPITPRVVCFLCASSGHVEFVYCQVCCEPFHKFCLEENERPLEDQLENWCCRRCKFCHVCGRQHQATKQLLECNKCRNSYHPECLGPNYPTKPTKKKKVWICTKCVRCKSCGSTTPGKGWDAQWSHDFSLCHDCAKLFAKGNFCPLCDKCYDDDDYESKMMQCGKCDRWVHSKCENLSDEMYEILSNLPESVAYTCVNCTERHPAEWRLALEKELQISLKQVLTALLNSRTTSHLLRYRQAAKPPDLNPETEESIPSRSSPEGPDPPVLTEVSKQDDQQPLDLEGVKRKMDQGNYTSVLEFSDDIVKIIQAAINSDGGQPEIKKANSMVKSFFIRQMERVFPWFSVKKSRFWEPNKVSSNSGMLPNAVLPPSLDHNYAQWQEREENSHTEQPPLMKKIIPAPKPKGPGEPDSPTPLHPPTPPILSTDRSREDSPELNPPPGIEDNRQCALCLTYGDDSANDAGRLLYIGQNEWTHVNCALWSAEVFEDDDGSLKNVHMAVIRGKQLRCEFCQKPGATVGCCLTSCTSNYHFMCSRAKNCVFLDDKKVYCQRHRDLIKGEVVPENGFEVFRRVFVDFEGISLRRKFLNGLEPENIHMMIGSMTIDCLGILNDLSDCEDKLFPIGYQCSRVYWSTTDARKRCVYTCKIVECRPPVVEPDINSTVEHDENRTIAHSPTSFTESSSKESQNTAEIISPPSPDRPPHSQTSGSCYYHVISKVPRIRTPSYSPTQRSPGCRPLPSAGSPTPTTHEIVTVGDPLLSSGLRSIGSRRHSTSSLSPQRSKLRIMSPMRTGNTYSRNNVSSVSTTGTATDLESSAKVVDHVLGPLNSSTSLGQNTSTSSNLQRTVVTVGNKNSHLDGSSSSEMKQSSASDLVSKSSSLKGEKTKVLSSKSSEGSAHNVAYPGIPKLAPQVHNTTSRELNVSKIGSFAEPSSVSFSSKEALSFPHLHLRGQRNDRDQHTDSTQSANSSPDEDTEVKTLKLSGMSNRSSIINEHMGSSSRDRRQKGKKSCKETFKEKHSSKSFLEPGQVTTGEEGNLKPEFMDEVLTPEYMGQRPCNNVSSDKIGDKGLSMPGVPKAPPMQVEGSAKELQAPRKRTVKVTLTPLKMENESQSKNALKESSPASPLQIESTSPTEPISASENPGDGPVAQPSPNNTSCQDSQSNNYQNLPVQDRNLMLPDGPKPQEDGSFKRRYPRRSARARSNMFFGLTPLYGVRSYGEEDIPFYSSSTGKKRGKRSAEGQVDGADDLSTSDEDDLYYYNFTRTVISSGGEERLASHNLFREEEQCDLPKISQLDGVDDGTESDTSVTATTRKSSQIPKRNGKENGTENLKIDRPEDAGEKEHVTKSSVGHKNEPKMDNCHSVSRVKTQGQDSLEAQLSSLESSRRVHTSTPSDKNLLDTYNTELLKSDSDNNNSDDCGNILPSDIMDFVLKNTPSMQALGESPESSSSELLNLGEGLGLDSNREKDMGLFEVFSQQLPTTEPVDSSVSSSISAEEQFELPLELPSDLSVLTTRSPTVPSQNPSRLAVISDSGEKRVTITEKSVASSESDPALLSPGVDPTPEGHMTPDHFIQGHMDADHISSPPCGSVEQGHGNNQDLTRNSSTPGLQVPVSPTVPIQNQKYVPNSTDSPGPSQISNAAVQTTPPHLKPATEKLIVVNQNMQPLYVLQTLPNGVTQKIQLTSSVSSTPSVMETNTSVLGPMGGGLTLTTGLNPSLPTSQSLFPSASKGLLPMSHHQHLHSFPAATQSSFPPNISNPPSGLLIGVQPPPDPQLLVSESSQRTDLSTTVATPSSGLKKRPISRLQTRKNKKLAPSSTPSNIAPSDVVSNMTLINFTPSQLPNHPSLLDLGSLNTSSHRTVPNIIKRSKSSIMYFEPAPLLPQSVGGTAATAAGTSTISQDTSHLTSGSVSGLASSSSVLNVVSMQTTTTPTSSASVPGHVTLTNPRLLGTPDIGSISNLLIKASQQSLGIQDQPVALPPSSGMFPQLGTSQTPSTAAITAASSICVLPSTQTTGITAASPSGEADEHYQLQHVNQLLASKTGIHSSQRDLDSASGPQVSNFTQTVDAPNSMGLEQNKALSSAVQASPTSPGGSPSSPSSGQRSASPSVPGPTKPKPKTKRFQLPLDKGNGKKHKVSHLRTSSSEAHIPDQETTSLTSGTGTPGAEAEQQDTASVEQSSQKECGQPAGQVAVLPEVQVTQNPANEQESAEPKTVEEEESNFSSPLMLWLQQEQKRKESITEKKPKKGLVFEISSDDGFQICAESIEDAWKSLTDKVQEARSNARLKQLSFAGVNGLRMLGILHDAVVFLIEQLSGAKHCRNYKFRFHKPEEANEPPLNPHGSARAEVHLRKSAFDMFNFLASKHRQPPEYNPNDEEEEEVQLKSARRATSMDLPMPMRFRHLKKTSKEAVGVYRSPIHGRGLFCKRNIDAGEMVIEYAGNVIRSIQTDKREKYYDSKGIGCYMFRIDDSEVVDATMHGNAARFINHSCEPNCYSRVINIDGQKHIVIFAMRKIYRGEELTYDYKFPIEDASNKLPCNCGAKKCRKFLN
# Biological target: Histone-lysine N-methyltransferase 2A (Homo sapiens) (UniProt Q03164)
# Experiment: qHTS Fluorescence Polarization Assay for Inhibitors of MLL CXXC domain - DNA interaction
# Details: MLL-CXXC / FITC-HOXA9 DNA fluorescence polarization; at 115 µM (top of the series)
row,Compound,"activity change, negative = inhibition"
1,CCC(=O)N(c1ccccc1)C1CCN(CCc2ccccc2)CC1,inactive: -1.28%
2,CN(CCCl)CCCl,inactive: 4.95%

# — PubChem BioAssay AID2662 (National Center for Advancing Translational Sciences (NCATS), 2010)
